From PubChem BioAssay AID588490 (The Scripps Research Institute Molecular Screening Center, 2011)

By UniProt entry, the sequences of proteins in these tests, tags left out.
UniProt Q9UM07, whole entry, looked up: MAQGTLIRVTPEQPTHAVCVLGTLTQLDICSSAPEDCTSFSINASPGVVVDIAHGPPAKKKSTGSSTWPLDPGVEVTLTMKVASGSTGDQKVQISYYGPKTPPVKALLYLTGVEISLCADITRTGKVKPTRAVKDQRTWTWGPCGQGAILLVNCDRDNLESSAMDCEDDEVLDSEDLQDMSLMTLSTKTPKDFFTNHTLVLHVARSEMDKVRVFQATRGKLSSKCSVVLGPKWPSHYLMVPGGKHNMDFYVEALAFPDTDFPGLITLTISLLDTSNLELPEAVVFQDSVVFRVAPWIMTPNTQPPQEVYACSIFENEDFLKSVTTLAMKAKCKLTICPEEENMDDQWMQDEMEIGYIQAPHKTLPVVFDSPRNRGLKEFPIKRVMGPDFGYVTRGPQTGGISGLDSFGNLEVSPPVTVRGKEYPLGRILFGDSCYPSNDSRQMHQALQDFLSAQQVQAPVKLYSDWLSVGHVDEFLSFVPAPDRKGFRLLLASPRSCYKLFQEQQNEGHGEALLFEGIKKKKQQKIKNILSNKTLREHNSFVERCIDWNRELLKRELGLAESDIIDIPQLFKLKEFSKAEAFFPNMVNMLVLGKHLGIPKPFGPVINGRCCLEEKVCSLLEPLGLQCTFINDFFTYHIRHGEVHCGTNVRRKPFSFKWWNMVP

Molecular target: Protein-arginine deiminase type-4 (Homo sapiens) (UniProt Q9UM07)
Experiment: PubChem AID 588490
Conditions: recombinant PAD1-4, BAEE citrulline colorimetric absorbance; PAD4

IC50: 240 nM
Compound: NC1=CC(=O)c2ccc(-c3cccc(C(=O)O)n3)nc2C1=O
